Laboratory results reported in patent US9546152B2 (MERCK SHARP & DOHME CORP., priority 2012, dated 2017).

By UniProt entry, the sequences of proteins in these tests, tags left out.
UniProt P56718, whole entry: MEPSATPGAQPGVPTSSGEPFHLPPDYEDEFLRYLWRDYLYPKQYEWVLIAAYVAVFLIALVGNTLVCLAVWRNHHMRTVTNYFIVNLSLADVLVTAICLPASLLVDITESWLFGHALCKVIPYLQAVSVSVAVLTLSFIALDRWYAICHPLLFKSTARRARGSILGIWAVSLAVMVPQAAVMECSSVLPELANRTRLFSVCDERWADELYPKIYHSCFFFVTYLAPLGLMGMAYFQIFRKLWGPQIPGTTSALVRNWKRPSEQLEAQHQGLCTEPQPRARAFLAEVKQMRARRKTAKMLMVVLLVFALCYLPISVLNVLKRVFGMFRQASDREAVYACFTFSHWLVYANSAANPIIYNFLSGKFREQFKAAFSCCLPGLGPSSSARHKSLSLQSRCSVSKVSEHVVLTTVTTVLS
UniProt O43614, whole entry: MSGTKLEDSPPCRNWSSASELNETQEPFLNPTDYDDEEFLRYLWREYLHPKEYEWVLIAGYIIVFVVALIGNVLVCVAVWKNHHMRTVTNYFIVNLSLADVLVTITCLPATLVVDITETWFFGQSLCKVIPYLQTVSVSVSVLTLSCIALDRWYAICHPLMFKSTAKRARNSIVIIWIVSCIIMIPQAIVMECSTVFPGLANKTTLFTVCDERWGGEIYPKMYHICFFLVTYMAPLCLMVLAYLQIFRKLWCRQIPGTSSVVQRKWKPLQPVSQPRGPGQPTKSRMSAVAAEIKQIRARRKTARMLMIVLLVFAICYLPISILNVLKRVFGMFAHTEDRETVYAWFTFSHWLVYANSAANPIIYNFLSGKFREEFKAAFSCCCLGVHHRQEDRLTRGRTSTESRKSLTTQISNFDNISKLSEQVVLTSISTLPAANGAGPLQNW

What was measured:
rat orexin-1 receptor = rat orexin-1 receptor (Rattus norvegicus (Rat), UniProt P56718); test: FLIPR Ca2+ Flux Assay, orexin-1 receptor; format: cell-based; settings: CHO cells expressing the rat orexin-1 receptor; agonist 70 pM Ala-6,12 human orexin-A; read-out: hOX1R FLIPR IC50
Method: In a typical experiment the OX1 and OX2 receptor antagonistic activity of the compounds of the present invention was determined in accordance with the following experimental method. For intracellular calcium measurements, Chinese hamster ovary (CHO) cells expressing the rat orexin-1 receptor or the human orexin-2 receptor, are grown in Iscove's modified DMEM containing 2 mM L-glutamine, […], 1% hypoxanthine-thymidine supplement, 100 U/ml penicillin, 100 μg/ml streptomycin and 10% heat-inactivated fetal calf serum (FCS). The cells are seeded at 20,000 cells/well into Becton-Dickinson black 384-well clear bottom sterile plates coated with poly-D-lysine. All reagents were from GIBCO-Invitrogen Corp. The seeded plates are incubated overnight at 37° C. and 5% CO2. Ala-6,12 human orexin-A as the agonist is prepared as a 1 mM stock solution in 1% bovine serum albumin (BSA) and diluted in assay buffer (HBSS containing 20 mM HEPES, 0.1% BSA and 2.5 mM probenecid, pH7.4) for use in the assay at a final concentration of 70 pM. Test compounds are prepared as 10 mM stock solution in DMSO, then diluted in 384-well plates, first in DMSO, then assay buffer. On the day of the assay, cells are washed 3 times with 100 μl assay buffer and then incubated for 60 min (37° C., 5% CO2) in 60 μl assay buffer containing 1 μM Fluo-4AM ester, 0.02% pluronic acid, and 1% BSA. The dye loading solution is then aspirated and cells are washed 3 times with 100 μl assay buffer. 30 μl of that same buffer is left in each well. Within the Fluorescent Imaging Plate Reader (FLIPR, Molecular Devices), test compounds are added to the plate in a volume of 25 μl, incubated for 5 min and finally 25 μl of agonist is added. Fluorescence is measured for each well at 1 second intervals for 5 minutes and the height of each fluorescence peak is compared to the height of the fluorescence peak induced by 70 pM Ala-6,12 orexin-A with buffer in place of antagonist. […] Alternatively, compound potency can be assessed by a radioligand binding assay (described in Bergman et. al. Bioorg. Med. Chem. Lett. 2008, 18, 1425-1430) in which the inhibition constant (Ki) is determined in membranes prepared from CHO cells expressing either the OX1 or OX2 receptor. The intrinsic orexin receptor antagonist activity of a compound which may be used in the present invention may be determined by these assays.

human orexin-2 receptor [1] = molecular target: T1, human orexin-2 receptor (Homo sapiens (Human), UniProt O43614); test: FLIPR Ca2+ Flux Assay, orexin-2 receptor; format: cell-based; settings: CHO cells expressing the human orexin-2 receptor; agonist 70 pM Ala-6,12 human orexin-A; read-out: hOX2R FLIPR IC50
Method: (§1) In a typical experiment the OX1 and OX2 receptor antagonistic activity of the compounds of the present invention was determined in accordance with the following experimental method. For intracellular calcium measurements, Chinese hamster ovary (CHO) cells expressing the rat orexin-1 receptor or the human orexin-2 receptor, are grown in Iscove's modified DMEM containing 2 mM L-glutamine, […], 1% hypoxanthine-thymidine supplement, 100 U/ml penicillin, 100 μg/ml streptomycin and 10% heat-inactivated fetal calf serum (FCS). The cells are seeded at 20,000 cells/well into Becton-Dickinson black 384-well clear bottom sterile plates coated with poly-D-lysine. […] Within the Fluorescent Imaging Plate Reader (FLIPR, Molecular Devices), test compounds are added to the plate in a volume of 25 μl, incubated for 5 min and finally 25 μl of agonist is added. Fluorescence is measured for each well at 1 second intervals for 5 minutes and the height of each fluorescence peak is compared to the height of the fluorescence peak induced by 70 pM Ala-6,12 orexin-A with buffer in place of antagonist. […] Alternatively, compound potency can be assessed by a radioligand binding assay (described in Bergman et. al. Bioorg. Med. Chem. Lett. 2008, 18, 1425-1430) in which the inhibition constant (Ki) is determined in membranes prepared from CHO cells expressing either the OX1 or OX2 receptor. […]

human orexin-2 receptor [2] = molecular target: T1, human orexin-2 receptor; test: radioligand binding assay, orexin-2 receptor; settings: membranes prepared from CHO cells expressing the OX2 receptor; read-out: hOX2R BIND hKi
Method: as §1

SMILES	pIC50 (rat orexin-1 receptor)	pIC50 (human orexin-2 receptor [1])	pKi (human orexin-2 receptor [2])
Cc1c(C#N)ccnc1O[C@@H]1CC[C@@H](C)N(C(=O)c2ccc(Cl)cc2-n2nccn2)C1 [Example 4, 2-{[(3R,6R)-1-{[4-chloro-2-(2H-1,2,3-triazol-2-yl)phenyl]carbonyl}-6-methylpiperidin-3-yl]oxy}-3-methylpyridine-4-carbonitrile]	6.05	–	–
COc1ccc(C(=O)N2C[C@H](Oc3nccc(C#N)c3C)CC[C@H]2C)c(-n2nccn2)c1 [Example 7, 2-{[(3R,6R)-1-{[4-methoxy-2-(2H-1,2,3-triazol-2-yl)phenyl]carbonyl}-6-methylpiperidin-3-yl]oxy}-3-methylpyridine-4-carbonitrile]	5.21	–	–
Cc1c(C#N)ccnc1O[C@@H]1CC[C@@H](C)N(C(=O)c2cccc(F)c2-n2nccn2)C1 [Example 12, 2-{[(3R,6R)-1-{[3-fluoro-2-(2H-1,2,3-triazol-2-yl)phenyl]carbonyl}-6-methylpiperidin-3-yl]oxy}-3-methylpyridine-4-carbonitrile]	6.03	–	–
Cc1c(C#N)ccnc1O[C@@H]1CC[C@@H](C)N(C(=O)c2c(F)cccc2-c2nccs2)C1 [Example 18, 2-{[(3R,6R)-1-{[2-fluoro-6-(1,3-thiazol-2-yl)phenyl]carbonyl}-6-methylpiperidin-3-yl]oxy}-3-methylpyridine-4-carbonitrile]	6.70	–	–
Cc1c(C#N)ccnc1O[C@@H]1CC[C@@H](C)N(C(=O)c2sncc2-c2ccccc2)C1 [Example 20, 3-methyl-2-({(3R,6R)-6-methyl-1-[(4-phenylisothiazol-5-yl)carbonyl]piperidin-3-yl}oxy)pyridine-4-carbonitrile]	< 5.00	–	–
Cc1c(C#N)ccnc1O[C@@H]1CC[C@@H](C)N(C(=O)c2ccccc2OC(C)C)C1 [Example 21, 3-methyl-2-{[(3R,6R)-6-methyl-1-{[2-(1-methylethoxy)phenyl]carbonyl}piperidin-3-yl]oxy}pyridine-4-carbonitrile]	5.71	–	–
Cc1c(C#N)ccnc1O[C@@H]1CC[C@@H](C)N(C(=O)c2ccncc2-c2ccccc2)C1 [Example 23, 3-methyl-2-({(3R,6R)-6-methyl-1-[(3-phenylpyridin-4-yl)carbonyl]piperidin-3-yl}oxy)pyridine-4-carbonitrile]	5.35	–	–
Cc1c(C#N)ccnc1O[C@@H]1CC[C@@H](C)N(C(=O)c2ccccc2-c2ncco2)C1 [Example 27, 3-methyl-2-{[(3R,6R)-6-methyl-1-{[2-(1,3-oxazol-2-yl)phenyl]carbonyl}piperidin-3-yl]oxy}pyridine-4-carbonitrile]	5.99	–	–
Cc1c(C#N)ccnc1O[C@@H]1CC[C@@H](C)N(C(=O)c2ccccc2-c2cscn2)C1 [Example 33, 3-methyl-2-{[(3R,6R)-6-methyl-1-{[2-(1,3-thiazol-4-yl)phenyl]carbonyl}piperidin-3-yl]oxy}pyridine-4-carbonitrile]	6.29	–	–
Cc1c(C#N)ccnc1O[C@@H]1CC[C@@H](C)N(C(=O)c2ccccc2-c2nccs2)C1 [Example 44, 3-methyl-2-{[(3R,6R)-6-methyl-1-{[2-(1,3-thiazol-2-yl)phenyl]carbonyl}piperidin-3-yl]oxy}pyridine-4-carbonitrile]	6.44	–	–
Cc1c(C#N)ccnc1O[C@@H]1CC[C@@H](C)N(C(=O)c2nscc2-c2ccccc2)C1 [Example 50]	5.60	–	–
Cc1c(C#N)ccnc1O[C@@H]1CC[C@@H](C)N(C(=O)c2nscc2-n2nccn2)C1 [Example 55, 3-methyl-2-{[(3R,6R)-6-methyl-1-{[4-(2H-1,2,3-triazol-2-yl)isothiazol-3-yl]carbonyl}piperidin-3-yl]oxy}pyridine-4-carbonitrile]	< 5.00	–	–
Cc1c(C#N)ccnc1O[C@@H]1CC[C@@H](C)N(C(=O)c2ccccc2OC(F)(F)F)C1 [Example 62, 3-methyl-2-{[(3R,6R)-6-methyl-1-{[2-(trifluoromethoxy)phenyl]carbonyl}piperidin-3-yl]oxy}pyridine-4-carbonitrile]	5.71	–	–
Cc1c(C#N)ccnc1O[C@@H]1CC[C@@H](C)N(C(=O)C2=C(c3ccccn3)CCC2)C1 [Example 63, 3-methyl-2-({(3R,6R)-6-methyl-1-[(2-pyridin-2-ylcyclopent-1-en-1-yl)carbonyl]piperidin-3-yl}oxy)pyridine-4-carbonitrile]	5.01	–	–
COc1ccc(C(=O)N2C[C@H](Oc3nccc(C#N)c3C)CC[C@H]2C)c(C2CCC2)n1 [Example 66]	5.01	–	–
Cc1c(C#N)ccnc1O[C@@H]1CC[C@@H](C)N(C(=O)c2cc(F)ccc2-n2nccn2)C1 [Example 69, 2-{[(3R,6R)-1-{[5-fluoro-2-(2H-1,2,3-triazol-2-yl)phenyl]carbonyl}-6-methylpiperidin-3-yl]oxy}-3-methylpyridine-4-carbonitrile]	5.69	–	–
CSc1ccc(C(=O)N2C[C@H](Oc3nccc(C#N)c3C)CC[C@H]2C)c(-n2nccn2)n1 [Example 86, 3-methyl-2-{[(3R,6R)-6-methyl-1-{[6-(methylsulfanyl)-2-(2H-1,2,3-triazol-2-yl)pyridin-3-yl]carbonyl}-piperidin-3-yl]oxy}pyridine-4-carbonitrile]	5.00	–	–
C[C@@H]1CC[C@@H](Oc2nccc(C#N)c2C2CC2)CN1C(=O)c1ccccc1-n1nccn1 [Example 92, 3-cyclopropyl-2-{[(3R,6R)-6-methyl-1-{[2-(2H-1,2,3-triazol-2-yl)phenyl]carbonyl}piperidin-3-yl]oxy}pyridine-4-carbonitrile]	–	7.92	9.70
CCc1c(C#N)ccnc1O[C@@H]1CC[C@@H](C)N(C(=O)c2ccccc2-n2nccn2)C1 [Example 93, 3-ethyl-2-{[(3R,6R)-6-methyl-1-{[2-(2H-1,2,3-triazol-2-yl)phenyl]carbonyl}piperidin-3-yl]oxy}pyridine-4-carbonitrile]	6.75	–	–
COc1c(C#N)ccnc1O[C@@H]1CC[C@@H](C)N(C(=O)c2ccc(F)cc2-n2nccn2)C1 [Example 98, 2-{[(3R,6R)-1-{[4-fluoro-2-(2H-1,2,3-triazol-2-yl)phenyl]carbonyl}-6-methylpiperidin-3-yl]oxy}-3-methoxypyridine-4-carbonitrile]	5.41	–	–

pIC50, pKi: −log10 of the molar value.
